High-throughput results as filed in PubChem.
Hits are enriched below; roughly 1.6% of the tested compounds scored in any of these assays.
ARNT-TACC3 inh = disruptors of ARNT/TACC3 protein interaction, primary screen, biochemical, AlphaScreen, single concentration; inhibition, % at 9.99 µM; Transforming acidic coiled-coil-containing protein 3 (Homo sapiens), Q9Y6A5; 0.66% of 390,000 active; AlphaScreen His-ARNT PAS-B/GST-TACC3 binding, luminescence; TACC3 fragment carries E629A point mutation; AID 623870, 2012;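 active = mean inhibition of replicates at least 50% and at least half of replicates each reaching 50%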;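 also: 0% = complete ARNT plus TACC3 wells and 100% = ARNT alone without TACC3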
Vif imaging = HIV Vif self-association inhibitors, primary screen, imaging, HEK293T, single point; HEK293T cells, Vif self-association by quenched fluorescence, 24 h; inhibition, % at 7.49 µM; 0.35% of 340,000 active; AID 602346, 2012; in the data active = inhibition above about 50%, passing the limit was not always enough
Yeast UUG start-1 = modulators of start codon recognition fidelity in yeast; S. cerevisiae UUG-firefly luciferase reporter, luminescence/redox ratio; AID 602363; 350,000 tested, 0.13% active; activity score, % at 18.7 µM;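 active = replicate mean at a twofold rise or more, about +100% in these data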;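 also: firefly luciferase made from a UUG start codon reports start codon fidelity; reporter light over untreated wells divided by growth signal over untreated wells; some hits fall short of that in this replicate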
CAL PDZ FP-1 = CAL PDZ peptide-binding inhibitors, primary screen, biochemical, fluorescence polarization, Cer-tagged CAL PDZ, HTS. Golgi-associated PDZ and coiled-coil motif-containing protein (Homo sapiens), Q9HD26. purified CAL PDZ, TMR-peptide fluorescence polarization, 1 h. inhibition, % at 20 µM. 0.02% of 330,000 active;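 active = highest replicate inhibition of at least 40%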;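 also: plate controls were DMSO neutral control wells for no effect and unlabeled competitor peptide control wells for full effect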
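Assay system – tagged CAL PDZ protein CerCALP, purified · Timing – 1 h at RT · Compound – single point, 20 µM · Measured by – fluorescence polarization from S- and P-plane intensities, G-factor corrected · Evaluation – inhibition from polarization loss · Probe or stimulus – TMR reporter peptide T*-PRC34 · Buffer or medium – pH 7.4 phosphate-saline buffer, reducing agent, detergent, IgG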
CAL PDZ FP-2 = untagged CAL PDZ binding inhibitors, primary screen, biochemical, fluorescence polarization, HTS. Golgi-associated PDZ and coiled-coil motif-containing protein (Homo sapiens), Q9HD26. purified CAL PDZ, TMR-peptide fluorescence polarization, 1 h. inhibition, % at 24.9 µM. 0.92% of 300,000 active;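 active = mean inhibition of at least 30% with at least half of replicates also reaching 30%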;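 also: 0% = DMSO neutral control and 100% = excess unlabeled competitor peptide PRC23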
PglD DTNB = C. jejuni PglD acetyltransferase inhibitors, primary screen, biochemical, DTNB colorimetric, single point | UDP-N-acetylbacillosamine N-acetyltransferase PglD (Campylobacter jejuni) | purified PglD enzyme, DTNB colorimetric CoA detection | inhibition, % at 12.5 µM | 0.098% of 360,000 active; in the data active = inhibition above about 16%, passing the limit was not always enough
Yeast UUG start-2 = enhancers of UUG start codon usage in yeast, dose response, S. cerevisiae, UUG firefly luciferase, cherry-pick, set 2; shares compounds with Yeast UUG start-1; luminescence, 4 h; 100% means double the DMSO signal; activation, % at 38 µM; 540 tested, under 10 active;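 active = signal increase whose fitted curve reaches an absolute level of 40 at a concentration under 10 µM; inactive = activity opposite to the expected increase, or the rest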
PglD confirm = PglD acetyltransferase inhibitors, confirmation, biochemical, DTNB absorbance, single point, cherry-picked samples | 320 tested, under 10 active | AID 743156, 2013 | Purified C. jejuni PglD, DTNB absorbance 412 nm | shares compounds with PglD DTNB | inhibition, % at 20 µM;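 active = mean inhibition across replicates of at least 20% with every single replicate also at 20% or more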;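 also: initial rate of CoA release by acetyl transfer from AcCoA to the UDP-4-amino sugar; 0% = median of neutral control wells and 100% = median of positive control wells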
ARNT Alpha ctr = AlphaScreen signal interference compounds, dose response, artefact control for ARNT-TACC3 interaction inhibitor project, biochemical, luminescence, cherry-pick; shares compounds with ARNT-TACC3 inh; His-ARNT PASB-GST AlphaScreen artifact counter-screen; AC50, µM (series often up to 68 µM), without a hit: top-dose activity change, negative = signal decrease; 50% of 1,200 active; AID 651705, 2012;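 active = every separate test run was called active for a drop in luminescence, with AC50 within twice the top valid dose, actives reach about 71 µM in these data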
The depositor's hits bear a star; i = inactive; . = no result given.

SMILES | ARNT-TACC3 inh | Vif imaging | Yeast UUG start-1 | CAL PDZ FP-1 | CAL PDZ FP-2 | PglD DTNB | Yeast UUG start-2 | others
COc1ccc2oc(C(=O)OCC(=O)c3ccc4c(c3)OCCO4)c(C)c2c1 | 25 | 14 | 668* | -1 | -1 | 2 | 16
CSc1ccc(S(=O)(=O)NC2CC2)cc1 | -4 | 6 | 155* | 0 | -6 | 2 | -4
C[C@H](CO)N1C[C@H](C)[C@@H](CN(C)Cc2cccnc2)Oc2ncc(C#CC3CCCCC3)cc2C1=O | . | . | 141* | . | . | 1 | i
C[C@@H]1CN([C@@H](C)CO)C(=O)c2cc(C#CC3CCCC3)cnc2O[C@H]1CN(C)C(=O)Nc1ccccc1 | 3 | . | 157* | . | . | 4 | i
C[C@H]1CN([C@@H](C)CO)C(=O)c2cc(C#CC3CCCCC3)cnc2O[C@@H]1CN(C)Cc1cccnc1 | -1 | . | 0 | . | . | 7 | .
C[C@H](CO)N1C[C@H](C)[C@@H](CN(C)S(=O)(=O)c2cn(C)cn2)Oc2ccc(NS(=O)(=O)c3ccc(Cl)cc3)cc2C1=O | -3 | . | 2 | . | . | 3 | .
COc1ccc(C/C(C)=N/NC(=O)c2ccc(C)cc2C)cc1 | . | 10 | 539* | -3 | -4 | -3 | -3
COc1ccc(CC(=O)Oc2ccc(C)cc2C)cc1 | -24 | -1 | -2 | 0 | -2 | -5 | .
COc1ccc(CN2C[C@@H](O)COC[C@H]3O[C@@H](CC(=O)N(C)C)CC[C@@H]32)cc1 | -1 | . | . | . | . | 0 | .
C[C@@H]1CN([C@@H](C)CO)C(=O)c2cc(C#CCN(C)C)cnc2O[C@@H]1CN(C)C(=O)Cc1ccccc1 | 8 | . | 176* | . | . | 2 | i
C[C@@H]1CN([C@@H](C)CO)C(=O)c2cc(C#Cc3ccccc3F)cnc2O[C@@H]1CN(C)C(=O)Cc1cccnc1 | 1 | . | 153* | . | . | -3 | i
C[C@@H]1CN([C@@H](C)CO)C(=O)c2cc(C#CCN(C)C)cnc2O[C@H]1CN(C)C(=O)Cc1ccccc1 | . | . | . | . | . | 3 | .
O=C(NCCc1ccccc1)[C@H]1[C@H](CO)[C@H]2Cn3c(cccc3=O)[C@@H]1N2C(=O)C1CC1 | -4 | . | . | . | . | -2 | .
COc1cccc(Oc2nc3ncn(Cc4ccccc4)c3c(=O)n2C)c1 | -2 | 7 | 113* | 1 | -2 | -4 | 13
COc1cccc(Cn2c(Oc3ccccc3)nc3c2c(=O)n(C)c(=O)n3C)c1 | 9 | -14 | -12 | -4 | 12 | 1 | .
O=C(CNC(=O)c1cc(=O)[nH]c2ccc(S(=O)(=O)N3CCOCC3)cc12)Nc1ccc(F)c(F)c1 | . | 16 | 108* | 0 | -2 | . | 12
Cc1ccc(S(=O)(=O)N(C)C[C@H]2OCCCC[C@H](C)Oc3ccc(NC(=O)CCCN(C)C)cc3C(=O)N([C@H](C)CO)C[C@@H]2C)cc1 | -3 | . | -10 | . | . | 12 | .
Cc1cccc(N2CCN(C(=O)Cn3nc(Cc4ccncc4)c4ccccc4c3=O)CC2)c1C | 11 | -14 | -13 | -3 | -6 | -2 | 5
COc1cc(NC(=O)Cc2nn(C)c(=O)c3ccccc23)cc(OC)c1 | 1 | -12 | -9 | -1 | -9 | 21* | 4 | PglD confirm=-5
CO[C@@H]1CN(C)C(=O)c2ccc(NC(=O)C3CCCC3)cc2OC[C@@H](C)N(C(=O)CC2CC2)C[C@@H]1C | -7 | . | . | . | . | 0 | .

Reprinted from above, two compounds:
SMILES | ARNT-TACC3 inh | Vif imaging | Yeast UUG start-1 | CAL PDZ FP-1 | CAL PDZ FP-2 | PglD DTNB | Yeast UUG start-2 | others
COc1cc(NC(=O)Cc2nn(C)c(=O)c3ccccc23)cc(OC)c1 | 1 | -12 | -9 | -1 | -9 | 21* | 4 | PglD confirm=-5
CO[C@@H]1CN(C)C(=O)c2ccc(NC(=O)C3CCCC3)cc2OC[C@@H](C)N(C(=O)CC2CC2)C[C@@H]1C | -7 | . | . | . | . | 0 | .

(list continues)
SMILES | ARNT-TACC3 inh | Vif imaging | Yeast UUG start-1 | CAL PDZ FP-1 | CAL PDZ FP-2 | PglD DTNB | Yeast UUG start-2 | others
O=C(NCc1ccccn1)c1c(-c2ccccc2)sc2ccccc12 | 59* | -1 | 62* | 0 | -5 | -1 | 4 | ARNT Alpha ctr=-17%
C[C@@H]1CN([C@H](C)CO)C(=O)c2cc(/C=C/c3ccccc3)cnc2O[C@@H]1CN(C)C | -5 | . | 0 | . | . | 0 | .
C=C(C)Cn1c2ccc(NC(=O)NCc3ccccc3)cc2c(=O)n1C | . | -2 | -4 | . | . | 20* | . | PglD confirm=-7
C=C(C)Cn1c2ccc(NC(=O)NCC)cc2c(=O)n1C | . | 9 | -8 | . | . | -5 | .
C[C@@H]1CN([C@H](C)CO)C(=O)c2cc(C#CC3CCCCC3)cnc2O[C@H]1CN(C)Cc1cncnc1 | 2 | . | 8 | . | . | -1 | .
CC(C)(C)C(=O)C1=C(O)C(=O)N(Cc2ccccc2)C1c1ccccc1F (stereo not drawn) | -7 | -6 | -29 | 0 | -2 | 73* | . | PglD confirm=-11
O=C(NCCN1CCCCC1)Nc1ccc(F)cc1F | -20 | 13 | 1 | . | -8 | 24* | . | PglD confirm=7
COc1ccc([N+](=O)[O-])cc1NC(=O)CCN1CCOCC1 | -3 | 7 | -1 | -1 | -3 | 21* | . | PglD confirm=-4
C[C@H](CO)N1C[C@H](C)[C@H](CN(C)Cc2ccc3c(c2)OCO3)Oc2ccc(NC(=O)Cn3cnnn3)cc2C1=O | 4 | . | -3 | . | . | 3 | .
CN(c1ccccc1)S(=O)(=O)c1ccc2[nH]c(=O)oc2c1 | -2 | 12 | -7 | -2 | . | 29* | . | PglD confirm=3
CN(Cc1ccccc1)S(=O)(=O)c1ccc2[nH]c(=O)oc2c1 | 1 | 7 | 0 | -1 | . | -3 | .
Cc1ccc(C)c(N(Cc2cc3ccc(C)cc3[nH]c2=O)C(=O)c2ccco2)c1 | 1 | . | -14 | -4 | 2 | -5 | .
Cc1cccc(N(Cc2cc3ccccc3[nH]c2=O)C(=O)c2ccco2)c1C | -6 | 5 | -11 | 0 | -4 | 32* | . | PglD confirm=3
CC(C)C(=O)Nc1ccc2c(c1)C(=O)N(C)[C@@H]1CC[C@H](CC(=O)N[C@H](C)c3ccccc3)O[C@H]1CO2 | -8 | . | 5 | . | . | 0 | .
O=C(NCC1CCCO1)[C@@H]1CSC2c3ccccc3C(=O)N21 (stereo partly drawn) | -8 | 0 | 1 | 0 | -6 | 22* | . | PglD confirm=-6

In the list so far, these contain two or more sulfur atoms.
SMILES | ARNT-TACC3 inh | Vif imaging | Yeast UUG start-1 | CAL PDZ FP-1 | CAL PDZ FP-2 | PglD DTNB | Yeast UUG start-2 | others
CSc1ccc(S(=O)(=O)NC2CC2)cc1 | -4 | 6 | 155* | 0 | -6 | 2 | -4
C[C@H](CO)N1C[C@H](C)[C@@H](CN(C)S(=O)(=O)c2cn(C)cn2)Oc2ccc(NS(=O)(=O)c3ccc(Cl)cc3)cc2C1=O | -3 | . | 2 | . | . | 3 | .
